From article PMC1971115 come the findings set out here.

By UniProt entry, the sequences of proteins in these tests, tags left out. Where a name states a change or a piece, a line headed by the entry shows the natural chain unless it says otherwise.
UniProt P69905, whole entry, chain 1 of 2: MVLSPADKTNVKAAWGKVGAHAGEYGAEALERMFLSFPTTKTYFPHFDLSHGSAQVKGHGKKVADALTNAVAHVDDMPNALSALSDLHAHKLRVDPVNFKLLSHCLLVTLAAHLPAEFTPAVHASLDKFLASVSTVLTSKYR
UniProt P00739: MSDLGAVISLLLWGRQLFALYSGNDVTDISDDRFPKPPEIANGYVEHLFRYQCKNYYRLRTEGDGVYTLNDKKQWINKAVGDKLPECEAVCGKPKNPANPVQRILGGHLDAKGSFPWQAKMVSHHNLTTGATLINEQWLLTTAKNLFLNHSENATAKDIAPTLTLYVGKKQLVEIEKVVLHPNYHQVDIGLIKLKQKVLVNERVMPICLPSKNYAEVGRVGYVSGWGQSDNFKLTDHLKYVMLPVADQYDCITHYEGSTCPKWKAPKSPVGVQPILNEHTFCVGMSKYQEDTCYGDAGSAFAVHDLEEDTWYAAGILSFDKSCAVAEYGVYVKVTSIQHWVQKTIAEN

The test has as its target hemoglobin A0 (human) (UniProt P69905). Briefly: SPR; Hb A0 immobilised; purified native Hpr or TLF (two-step) flowed over; Langmuir 1:1 binding model, BIAevaluation 4.1; essentially as in ref. 31. In general terms: Surface plasmon resonance follows binding to a sensor surface in real time, without labels.

A word on the Kd: it is the concentration at which binding is half-saturated. The substance “haptoglobin-related protein (from UniProt P00739 1-348; P00739 1-348) (natural protein)” came in with a dissociation constant (Kd) of 2 to 5 nM.
